{"source": "patent US4273704A", "about": "“N-Adamantane-substituted tetrapeptide amides” (G. D. Searle & Co., priority 1979, dated 1981)", "system": "opiate receptor sites", "details": "in the absence of sodium ion; guinea pig brain membrane fraction; 3H-naloxone 2.5 nM"}
{"smiles": "CN1CC[C@]23c4c5ccc(O)c4O[C@H]2[C@@H](O)C=C[C@H]3[C@H]1C5", "note": "[morphine]", "values": [{"measurement": "ID50 concentration of the drug inhibiting 3H-naloxone binding", "value": "7.4×10^-7"}]}
